Assay: in vivo
Details: mouse, ip

O=C1NS(=O)(=O)c2ccccc21.[Na] [Sodium Saccharin]
LD50: ~6000 mg/kg
